{"source": "patent US10711033B2", "about": "“Branched chain-containing aromatic compound” (AJINOMOTO CO., INC., priority 2010, dated 2020)", "assay": "Solubility (20° C.) of branched chain-containing and straight chain-containing aromatic compounds in various solvents", "data": [{"substance": "(4′,4′-bisdihydrophytyloxy)benzhydrol [Example 4]", "values": [{"measurement": "solubility in CPME", "setting": "saturated in CPME (cyclopentylmethylether) at 20° C.", "result": ">50", "unit": "wt %"}, {"measurement": "solubility in chloroform", "setting": "saturated in chloroform at 20° C.", "result": ">50", "unit": "wt %"}, {"measurement": "solubility in ethyl acetate", "setting": "saturated in ethyl acetate at 20° C.", "result": ">25", "unit": "wt %"}, {"measurement": "solubility in isopropyl acetate", "setting": "saturated in isopropyl acetate at 20° C.", "result": ">25", "unit": "wt %"}]}]}
